{
  "source": "ChEMBL document CHEMBL5042498",
  "about": "“Development of 3-(4-Chlorophenyl)-1-(phenethyl)urea Analogues as Allosteric Modulators of the Cannabinoid Type-1 Receptor: RTICBM-189 is Brain Penetrant and Attenuates Reinstatement of Cocaine-Seeking Behavior” (J Med Chem, 2022)",
  "assay": "Ratio of drug level in Sprague-Dawley rat brain to plasma assessed as permeability coefficient at 10 mg/kg, po by LC-MS/MS",
  "type": "ADME, organism-based",
  "data": [
    {"molecule": "O=C(NCCc1cccc(Cl)c1)Nc1ccc(Cl)cc1", "values": [
      {"measurement": "Ratio", "result": 2}
    ]}
  ]
}
